ChEMBL document CHEMBL3351448, “Discovery of (7-aryl-1,5-naphthyridin-2-yl)ureas as dual inhibitors of ERK2 and Aurora B kinases with antiproliferative activity against cancer cells” (Bioorg Med Chem Lett, 2014)

The chains behind the UniProt entries cited, without tags or fusion partners.
UniProt P28482, whole entry: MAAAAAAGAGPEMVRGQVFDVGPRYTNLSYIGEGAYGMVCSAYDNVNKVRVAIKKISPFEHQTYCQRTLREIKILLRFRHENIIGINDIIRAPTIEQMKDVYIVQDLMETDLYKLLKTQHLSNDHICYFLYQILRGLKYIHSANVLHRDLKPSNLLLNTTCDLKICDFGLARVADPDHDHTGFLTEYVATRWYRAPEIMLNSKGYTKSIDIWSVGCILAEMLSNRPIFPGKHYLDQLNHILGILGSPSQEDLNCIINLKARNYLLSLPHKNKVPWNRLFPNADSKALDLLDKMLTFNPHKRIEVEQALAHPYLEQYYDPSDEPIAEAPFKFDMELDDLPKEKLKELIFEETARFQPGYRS

Target: Mitogen-activated protein kinase 1 (Homo sapiens, UniProt P28482)
Test: Inhibition of ERK2 (unknown origin)

## Cn1cc(-c2cnc3ccc(NC(=O)NCc4ccccc4)nc3c2)cn1
  IC50: 30 nM
